Earlier results in patent US8349353B2, “Controlled release cytotoxic agent compositions and methods for the treatment of otic disorders” (Otonomy, Inc., priority 2008, dated 2013).

Amino acid sequences for entries named in this document (tags omitted). Residues count along the entry.
UniProt P01375, 77-233 limits assumed: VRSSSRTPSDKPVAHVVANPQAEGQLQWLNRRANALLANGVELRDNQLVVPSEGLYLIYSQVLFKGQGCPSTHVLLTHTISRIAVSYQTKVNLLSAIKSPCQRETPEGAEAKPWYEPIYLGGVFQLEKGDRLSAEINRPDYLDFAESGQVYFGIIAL

Target: T1, TNF (Homo sapiens, UniProt P01375)
T1 construct: host or cells: patients in clinical trials
Conditions: three phase-III clinical trials

Substance: Onercept: a soluble TNF p55 receptor
- adverse events in clinical trials: patients diagnosed with fatal sepsis
